Patent US11845740B2, “Glutaminyl cyclase inhibitors and the use thereof in treatment of various diseases” (OBSCHESTVO S OGRANICHENNOI OTVETSTVENNOSTIYU …, priority 2017, dated 2023)

Amino acid sequences for entries named in this document (tags omitted). A change or cut given only in a name is not applied to a line headed by its entry.
UniProt Q9NXS2: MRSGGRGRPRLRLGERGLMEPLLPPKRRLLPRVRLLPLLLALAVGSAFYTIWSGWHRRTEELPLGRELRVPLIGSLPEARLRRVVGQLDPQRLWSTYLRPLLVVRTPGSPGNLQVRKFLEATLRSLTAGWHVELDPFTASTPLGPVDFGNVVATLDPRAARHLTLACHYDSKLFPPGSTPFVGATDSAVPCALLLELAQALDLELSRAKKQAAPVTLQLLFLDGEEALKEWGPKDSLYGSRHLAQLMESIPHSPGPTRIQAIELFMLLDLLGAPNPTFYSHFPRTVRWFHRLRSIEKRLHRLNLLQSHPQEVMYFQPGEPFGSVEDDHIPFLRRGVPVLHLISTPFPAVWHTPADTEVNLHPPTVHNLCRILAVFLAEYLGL

The compounds below were run against recombinant intracellular human glutaminyl cyclase (Homo sapiens (Human), UniProt Q9NXS2) (assay: Enzymatic activity of human glutaminyl cyclase in vitro (fluorescent substrate Gln-bNA)). Settings: 25° C., 50 μM Gln-bNA, pH 8.0.
Type: biochemical
In the case of `CC(C)(CC(=O)NCCc1cnc[nH]1)CC(=O)NCCc1cnc[nH]1` [Compound IX, N,N′-bis[2-(1H-imidazol-4-yl)ethyl]-3,3-dimethylpentanediamide], the IC50 is reported as 5.7 µM and the Ki is reported as 3.17 µM. Work on `O=C(CCC(=O)NCCc1cnc[nH]1)NCCc1cnc[nH]1` [Compound V, N,N′-bis[2-(1H-imidazol-4-yl)ethyl]succinamide] yielded an IC50 of 20 µM and a Ki of 11 µM. `O=C(CCCC(=O)NCCc1cnc[nH]1)NCCc1cnc[nH]1` [Compound VI, N,N′-bis[2-(1H-imidazol-4-yl)ethyl]glutaramide] gave an IC50 of 5.4 µM and a Ki of 3 µM. `O=C(CCCCC(=O)NCCc1cnc[nH]1)NCCc1cnc[nH]1` [Compound VII, N,N′-bis[2-(1H-imidazol-4-yl)ethyl]adipamide] showed an IC50 of 4.4 µM and a Ki of 2 µM. `CC(CC(=O)NCCc1cnc[nH]1)CC(=O)NCCc1cnc[nH]1` [Compound VIII, N,N′-bis[2-(1H-imidazol-4-yl)ethyl]-3-methylpentanediamide] showed an IC50 of 7.3 µM and a Ki of 4 µM.
